The record followed here is ChEMBL document CHEMBL4321814, “Design of Gallinamide A Analogs as Potent Inhibitors of the Cysteine Proteases Human Cathepsin L and Trypanosoma cruzi Cruzain” (J Med Chem, 2019).

Sequences of proteins named here, by UniProt entry; tags and fusion partners are left off. A change or cut given only in a name is not applied to a line headed by its entry.
UniProt P07711: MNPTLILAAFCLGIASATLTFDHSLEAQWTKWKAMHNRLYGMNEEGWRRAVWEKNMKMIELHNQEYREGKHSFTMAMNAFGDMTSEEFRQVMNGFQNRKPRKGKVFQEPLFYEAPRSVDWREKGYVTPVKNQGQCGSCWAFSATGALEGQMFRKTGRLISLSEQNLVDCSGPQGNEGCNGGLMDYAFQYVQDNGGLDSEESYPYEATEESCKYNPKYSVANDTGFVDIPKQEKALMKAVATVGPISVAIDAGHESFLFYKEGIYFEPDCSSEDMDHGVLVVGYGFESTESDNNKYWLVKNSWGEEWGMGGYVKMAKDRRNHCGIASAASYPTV

In this assay the target is Procathepsin L (Homo sapiens) (UniProt P07711). Briefly: Inhibition of human cathepsin L assessed as Kinact /Ki ratio using fluorogenic substrate cbz-FR-AMC monitored for 90 to 120 mins by spectrophotometry. The method, boiled down:
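Continuous kinetic assay with 0.5 ng/mL final cathepsin L and 10 μM Z-FR-AMC, with DMSO below 6%. Inhibitors were a 3-fold, 11-point series from […] to 1.0 μM. Substrate and inhibitor were combined and enzyme was added to start the reaction. AMC release was read for 2 h and converted via an AMC standard curve. Progress curves were fitted to a six-parameter covalent inhibition model (k_inact, association/dissociation constants).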

For the molecule `C#CCCCCOC1=CC(=O)N(C(=O)/C=C/[C@H](C)NC(=O)[C@H](CC(C)C)NC(=O)[C@H](CC(C)C)OC(=O)[C@H]([C@@H](C)CC)N(C)C)[C@@H]1C`, the Ratio amounted to 3600 ×10³ /M/s.

Consider `CC[C@H](C)[C@@H](C(=O)O[C@@H](CC(C)C)C(=O)N[C@@H](CC(C)C)C(=O)N[C@H](/C=C/C(=O)N1C(=O)C=C(OC)[C@@H]1CC(C)C)Cc1ccccc1)N(C)C`, for which the Ratio is 8730 ×10³ /M/s.

On to `CC[C@H](C)[C@@H](C(=O)O[C@@H](CC(C)C)C(=O)N[C@@H](CC(C)C)C(=O)N[C@@H](C)/C=C/C(=O)N1C(=O)C=C(OC)[C@@H]1Cc1ccccc1)N(C)C`, for which the Ratio amounted to 1300 ×10³ /M/s.

As for `CC[C@H](C)[C@@H](C(=O)O[C@@H](CC(C)C)C(=O)N[C@@H](CC(C)C)C(=O)N[C@H](/C=C/C(=O)N1C(=O)C=C(OC)[C@@H]1C)Cc1ccccc1)N(C)C`, the Ratio turned out to be 818 ×10³ /M/s.
